From ChEMBL document CHEMBL1129527, “Synthesis, chromatographic resolution, and anti-human immunodeficiency virus activity of (+/-)-calanolide A and its enantiomers” (J Med Chem, 1996)

Key:
[1] = system: HIV-1 reverse transcriptase (Human immunodeficiency virus 1); assay: Percent inhibition against DNA -dependent DNA polymerase (DDDP) of HIV-1 RT Nucleic Acid polymerase at dose 200 ug/mL
[2] = system: HIV-1 reverse transcriptase (Human immunodeficiency virus 1); assay: Percent inhibition against RNA-dependent DNA polymerase (RDDP) of HIV-1 RT Nucleic Acid polymerase at dose 200 ug/mL

Structure (SMILES) | inhibition [1] [%] | inhibition [2] [%]
CCCc1cc(=O)oc2c3c(c4c(c12)OC(C)(C)C=C4)O[C@H](C)[C@@H](C)[C@@H]3O [CALANOLIDE A] | 83.9 | 97.4
CCCc1cc(=O)oc2c3c(c4c(c12)OC(C)(C)C=C4)O[C@@H](C)[C@H](C)[C@@H]3O [COSTATOLIDE] | 52.7 | 68.1
